Screening results from PubChem BioAssay.
Rango-impB inh – qHTS Assay for Inhibitors of Rango (Ran-regulated importin-beta cargo) - Importin beta complex formation. Importin subunit beta-1 (Homo sapiens), Q14974. Rango CFP/YFP FRET sensor + importin beta, 45 min. Potency, µM (highest dose often 92.2 µM). 340,000 tested, 0.031% active; calls by dose curve; also: nearly all actives have a fitted effect of over 15% in size
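FRET biosensor (snurportin 1 IBB flanked by EYFP and cerulean), 50 nM, with compound 5 min, then 0.125 microM importin beta in PBS, 1 mM DTT, 0.02% Tween-20, 0.1% BSA. CFP/YFP ratio read after 45 min at room temperature; pre-read flags interference.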
EPAC2 antag – qHTS for Antagonist of cAMP-regulated guanine nucleotide exchange factor 2 (EPAC2): primary screen | Rap guanine nucleotide exchange factor 4 (Homo sapiens), Q8WZA2 | EPAC2 GEF exchange of Rap1B-BODIPY-GDP, fluorescence | Potency, µM (series often up to 114 µM), hits mostly inhibitors | 360,000 tested, 0.18% active; also: nearly all actives have a fitted effect of over 45% in size
EPAC1 agonist – qHTS for Agonist of cAMP-regulated guanine nucleotide exchange factor 3 (EPAC1): primary screen | Rap guanine nucleotide exchange factor 3 (Homo sapiens), O95398 | EPAC1 agonist qHTS, biochemical assay; response scale: 100% = response to 6.5 mM cAMP | Potency, µM (top dose mostly 154 µM), most hits filed as activators | 360,000 tested, 0.073% active | AID 720707, 2013; also: nearly all actives have a fitted effect of over 60% in size
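Read-out is the fluorescence drop as BODIPY-GDP leaves Rap1B (480 nm excitation, 540 nm emission), recorded every 5 minutes over 30 minutes. Reactions held 100 nM EPAC1, 250 nM Rap1B–BODIPY-GDP and 50 uM GDP, with 6.5 mM cAMP setting full activation.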
Rango release inh – qHTS Assay for Inhibitors of RanGTP induced Rango (Ran-regulated importin-beta cargo) - Importin beta complex dissociation; Biochemical FRET Rango-importin beta, RanGTP-induced dissociation; Potency, µM (series often up to 46.1 µM); 340,000 tested, 0.071% active; AID 540253, 2011; calls by dose curve; also: nearly all actives have a fitted effect of over 45% in size
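FRET read at 45 min, room temperature: inhibitors block the CFP/YFP signal rise when RanGTP (0.6 uM Ran, 2 mM GTP, 0.2 uM RCC1) frees Rango (0.1 uM) from importin beta (0.25 uM). Pre-read after 5 min compound exposure flags interference.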
EPAC1 antagonist – qHTS for Antagonist of cAMP-regulated guanine nucleotide exchange factor 3 (EPAC1): primary screen. Rap guanine nucleotide exchange factor 3 (Homo sapiens), O95398. EPAC1 GEF assay, Rap1b-BODIPY-GDP exchange fluorescence. Potency, µM (top dose mostly 115 µM), actives largely listed as inhibitors. 360,000 tested, 0.14% active. AID 720709, 2013; also: nearly all actives have a fitted effect of over 50% in size
EPAC2 agonist – qHTS for Agonist of cAMP-regulated guanine nucleotide exchange factor 4 (EPAC2): primary screen; EPAC2 activation, biochemical qHTS; response scale: 100% = 6.5 mM cAMP response; 360,000 tested, 0.079% active; Rap guanine nucleotide exchange factor 4 (Homo sapiens), Q8WZA2; Potency, µM (highest dose often 154 µM), usual class: activators; also: nearly all actives have a fitted effect of over 50% in size
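Guanine nucleotide exchange by EPAC2 is measured as reduced fluorescence of BODIPY-GDP once it is released from 250 nM Rap1B. Plates are read kinetically for 30 min at room temperature; results are scaled to 6.5 mM cAMP.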
Of the large screens only hits and unclear results are named; the others gave an inactive call. A selection: hits, their analogues and other compounds. The true share with any hit is near 0.43%. Unless noted, calls follow the shape of the dose curve; as a rule, active = well fitted curve in the direction sought with a large enough effect; inconclusive = small, poorly fitted or top-dose-only effect, or another doubt; inactive = no such curve, though single readings can be large; an effect the other way counts as inactive or inconclusive.

Amino acid sequences for entries named in this document (tags omitted).
Importin subunit beta-1 (Homo sapiens), Q14974, UniProt Q14974, whole entry, looked up: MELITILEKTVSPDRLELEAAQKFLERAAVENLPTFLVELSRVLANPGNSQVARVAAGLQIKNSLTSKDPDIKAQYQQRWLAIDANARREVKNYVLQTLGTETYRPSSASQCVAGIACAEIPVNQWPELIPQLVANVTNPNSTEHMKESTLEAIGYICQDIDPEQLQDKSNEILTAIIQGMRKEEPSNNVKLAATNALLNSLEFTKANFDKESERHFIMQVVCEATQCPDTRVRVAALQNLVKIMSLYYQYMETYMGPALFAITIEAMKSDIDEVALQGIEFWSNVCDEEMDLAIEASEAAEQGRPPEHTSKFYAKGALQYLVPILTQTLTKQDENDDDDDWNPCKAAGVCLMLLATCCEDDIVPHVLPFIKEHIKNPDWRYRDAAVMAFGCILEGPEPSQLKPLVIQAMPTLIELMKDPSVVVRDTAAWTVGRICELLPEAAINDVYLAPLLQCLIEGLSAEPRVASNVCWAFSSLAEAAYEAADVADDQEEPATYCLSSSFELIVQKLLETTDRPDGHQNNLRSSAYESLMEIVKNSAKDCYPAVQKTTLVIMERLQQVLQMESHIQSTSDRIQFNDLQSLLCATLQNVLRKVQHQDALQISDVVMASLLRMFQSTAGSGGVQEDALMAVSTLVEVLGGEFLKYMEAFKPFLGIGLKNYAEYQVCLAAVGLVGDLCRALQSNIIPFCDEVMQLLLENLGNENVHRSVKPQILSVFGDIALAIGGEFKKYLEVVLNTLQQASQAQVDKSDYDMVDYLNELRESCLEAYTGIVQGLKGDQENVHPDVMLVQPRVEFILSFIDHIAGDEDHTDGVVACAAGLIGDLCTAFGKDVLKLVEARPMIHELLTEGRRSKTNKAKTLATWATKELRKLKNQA
Rap guanine nucleotide exchange factor 4 (Homo sapiens), Q8WZA2, UniProt Q8WZA2, whole entry, looked up: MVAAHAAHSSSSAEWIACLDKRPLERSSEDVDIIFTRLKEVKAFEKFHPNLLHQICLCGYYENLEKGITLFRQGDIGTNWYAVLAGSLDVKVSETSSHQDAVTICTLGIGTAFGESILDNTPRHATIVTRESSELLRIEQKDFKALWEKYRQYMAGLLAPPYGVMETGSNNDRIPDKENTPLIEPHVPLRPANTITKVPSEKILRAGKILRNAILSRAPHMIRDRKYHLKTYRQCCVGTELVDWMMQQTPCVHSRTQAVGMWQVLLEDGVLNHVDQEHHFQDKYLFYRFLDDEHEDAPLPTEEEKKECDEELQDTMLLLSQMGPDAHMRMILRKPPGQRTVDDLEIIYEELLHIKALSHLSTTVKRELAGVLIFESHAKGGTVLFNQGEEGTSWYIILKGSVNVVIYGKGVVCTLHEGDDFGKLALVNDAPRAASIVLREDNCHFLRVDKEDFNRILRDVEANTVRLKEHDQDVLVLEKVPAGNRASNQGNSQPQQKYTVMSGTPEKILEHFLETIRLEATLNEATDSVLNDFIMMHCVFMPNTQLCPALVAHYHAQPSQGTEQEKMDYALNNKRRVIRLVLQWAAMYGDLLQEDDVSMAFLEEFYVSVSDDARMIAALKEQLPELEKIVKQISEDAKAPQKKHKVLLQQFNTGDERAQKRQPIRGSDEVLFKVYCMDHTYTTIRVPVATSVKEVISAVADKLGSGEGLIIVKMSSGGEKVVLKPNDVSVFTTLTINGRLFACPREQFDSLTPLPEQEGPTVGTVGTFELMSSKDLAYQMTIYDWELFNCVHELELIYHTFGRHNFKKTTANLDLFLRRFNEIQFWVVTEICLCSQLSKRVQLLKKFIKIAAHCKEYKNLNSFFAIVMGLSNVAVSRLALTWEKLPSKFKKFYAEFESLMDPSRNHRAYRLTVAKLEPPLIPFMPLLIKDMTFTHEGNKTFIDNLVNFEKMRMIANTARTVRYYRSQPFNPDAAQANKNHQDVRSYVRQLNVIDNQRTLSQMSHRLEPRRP

COc1cccc2c1C(=O)c1c(O)c3c(c(O)c1C2=O)CC(O)(C(C)=O)CC3OC1CC(N(C)C)C(O)C(C)O1 (stereo not given)	EPAC1 agonist 89µM
COc1cccc2c1C(=O)c1c(O)c3c(c(O)c1C2=O)C[C@@](O)(C(=O)CO)C[C@@H]3OC1CC(N)C(O)C(C)O1 (stereo not given in full)	EPAC1 agonist inconclusive
CC(=O)[C@@]1(O)Cc2c(O)c3c(c(O)c2[C@H](O[C@H]2C[C@H](N)[C@H](O)[C@H](C)O2)C1)C(=O)c1ccccc1C3=O	EPAC1 agonist 28µM, EPAC2 agonist inconclusive (no result: Rango-impB inh, Rango release inh)
CCCN(CCC)Cc1cc(=O)oc2cc(OC)c(Cl)cc12	EPAC2 antag inconclusive (no result: Rango-impB inh, Rango release inh)
C=CCN(CC=C)Cc1cc(=O)oc2cc(OC)c(Cl)cc12	EPAC2 antag 32µM (no result: Rango-impB inh, Rango release inh)
O=C(Nc1ccccc1Cl)c1cc(C2CCCN(C(=O)c3ccccc3)C2)on1 (stereo not given)	none (no result: Rango-impB inh, Rango release inh)
COc1cc(/C=C2\CCCc3c2nc2ccccc2c3C(=O)O)cc(Br)c1O	Rango-impB inh inconclusive, Rango release inh inconclusive
CCOc1cc(/C=C2\CCCc3c2nc2ccccc2c3C(=O)O)ccc1OC	Rango-impB inh inconclusive, EPAC1 agonist 100µM, Rango release inh inconclusive, EPAC2 agonist 100µM
COc1cc(/C=C2/C(=O)c3cccc([N+](=O)[O-])c3C2=O)c(Br)cc1O	Rango release inh inconclusive, EPAC1 antagonist 40µM
CCSc1nc2ccccc2c(=O)n1C1CCOC(C)(C)C1 (stereo not given)	EPAC2 antag 40µM
COC1=CC(=O)OC(c2cccc([N+](=O)[O-])c2)C1 (stereo not given)	none (no result: Rango-impB inh, Rango release inh)
O=C(c1ccncc1)N1N=C2CCCCCC2C1(O)C(F)(F)F (stereo not given)	none
O=C(c1ccco1)N1N=C2CCCCCC2C1(O)C(F)(F)F (stereo not given)	EPAC2 antag 79µM
Cc1ccc(NC(=O)c2cc3ccccc3oc2=N)cc1	none
N=c1oc2c3c4c(cc2cc1C(=O)Nc1ccccc1)CCCN4CCC3	Rango-impB inh inconclusive, EPAC1 agonist inconclusive, Rango release inh inconclusive, EPAC2 agonist 112µM
CSc1cccc(N2CC(C(=O)Nc3cccc(S(=O)(=O)N4CCCC4)c3)CC2=O)c1 (stereo not given)	EPAC1 agonist 50µM
COc1ccc(NS(=O)(=O)c2ccc3c(c2)[C@H]2C=CC[C@H]2[C@@H](c2ccc(C(=O)O)cc2)N3)cc1	Rango-impB inh inconclusive, EPAC1 antagonist inconclusive
Cc1c(Cl)cccc1NS(=O)(=O)c1ccc2c(c1)C1C=CCC1C(c1ccc(C(=O)O)cc1)N2 (stereo not given)	EPAC1 antagonist 56µM
Cc1[nH][nH]c(=O)c1C(c1c(C)[nH][nH]c1=O)c1cn(Cc2cccc3ccccc23)c2ccccc12	EPAC1 antagonist 89µM
CCOc1ccc(NC(=O)COc2ccc(C(=O)NCc3cccnc3)cc2OC)cc1	Rango release inh 0.37µM
CC(=O)Nc1cccc(-c2nc3ccccc3n2C(C)C(=O)NC(C)(C)C)c1 (stereo not given)	none (no result: Rango-impB inh, Rango release inh)
COc1ccc(N(C(=O)c2ccco2)S(=O)(=O)c2cc(OC)ccc2OC)cc1	EPAC2 agonist 10µM
COc1ccc(N(C(=O)c2ccco2)S(=O)(=O)c2ccc(F)cc2)cc1	none
COc1ccc(/C(N)=N/OC(=O)c2ccc(C)c([N+](=O)[O-])c2)cc1	EPAC2 agonist 10µM
O=C(c1ccccc1)c1ccc2nc(-c3ccco3)c(-c3ccco3)nc2c1	Rango-impB inh inconclusive, Rango release inh inconclusive, EPAC1 antagonist 50µM
O=C(Nc1ccc2nc(-c3ccco3)c(-c3ccco3)nc2c1)N1CCCCCC1	Rango-impB inh inconclusive, Rango release inh inconclusive, EPAC1 antagonist 40µM
O=C(NCCc1ccccc1)c1ccc2nc(-c3ccco3)c(-c3ccco3)nc2c1	Rango-impB inh inconclusive, Rango release inh inconclusive, EPAC1 antagonist inconclusive
O=C(O)c1cc(O)c2c(c1)[C@@H]([C@H]1c3cc(C(=O)O)cc(O)c3C(=O)c3c(O[C@@H]4O[C@H](CO)[C@@H](O)[C@H](O)[C@H]4O)cccc31)c1cccc(OC3O[C@H](CO)[C@@H](O)[C@H](O)[C@H]3O)c1C2=O (stereo not given in full)	Rango-impB inh inconclusive, EPAC2 antag inconclusive, EPAC1 antagonist inconclusive
O=C(O)c1cc(O)c2c(c1)[C@H]([C@H]1c3cc(C(=O)O)cc(O)c3C(=O)c3c(O[C@@H]4O[C@H](CO)[C@@H](O)[C@H](O)[C@H]4O)cccc31)c1cccc(OC3O[C@H](CO)[C@@H](O)[C@H](O)[C@H]3O)c1C2=O (stereo not given in full)	Rango-impB inh inconclusive, EPAC2 antag inconclusive, Rango release inh 18µM, EPAC1 antagonist 3.5µM
COc1cc(C)c(/C=C/C(C)=C/C=C/C(C)=C/C(=O)O)c(C)c1C	EPAC2 antag 10µM, EPAC1 antagonist inconclusive
CN(C)c1nc(OCCNC(=O)Nc2ccccc2)nc(N(C)C)n1	EPAC2 agonist 10µM
N#C/C(=C/c1cccn1-c1cccc(C(=O)O)c1)c1ccc(Cl)cc1	EPAC2 antag 40µM
CCOC(=O)c1c(NC(C)=O)sc2c1CCC(C=O)=C2Sc1ccccc1	Rango-impB inh inconclusive, Rango release inh 15µM
O=C1C=C(N2CCOCC2)c2ccccc2C1=O	EPAC2 antag inconclusive, EPAC1 antagonist 10µM
Nc1c(C(=O)c2ccccc2)sc2nsc(SCCN3CCOCC3)c12	Rango-impB inh inconclusive, EPAC1 agonist 89µM, Rango release inh inconclusive, EPAC2 agonist inconclusive
COc1ccccc1N1CCN(C(c2cc3ccc(C)cc3[nH]c2=O)c2nnnn2C2CCCC2)CC1 (stereo not given)	Rango-impB inh 58µM
COc1ccccc1N1CCN(C(c2cc3cc(C)ccc3[nH]c2=O)c2nnnn2C2CCCC2)CC1 (stereo not given)	none
Cc1ccc(S(=O)c2ccc([N+](=O)[O-])c3nonc23)cc1 (stereo not given)	EPAC2 antag 50µM, EPAC1 antagonist inconclusive (no result: Rango-impB inh, Rango release inh)
Cc1ccc(Nc2c([N+](=O)[O-])ccc3nonc23)c(C)c1	none
